Data on one compound can be found in patent US7598261B2, “Spirocyclic heterocyclic derivatives and methods of their use” (Adolor Corporation, priority 2005, dated 2009).

Amino acid sequences for entries named in this document (tags omitted).
UniProt P41145, whole entry: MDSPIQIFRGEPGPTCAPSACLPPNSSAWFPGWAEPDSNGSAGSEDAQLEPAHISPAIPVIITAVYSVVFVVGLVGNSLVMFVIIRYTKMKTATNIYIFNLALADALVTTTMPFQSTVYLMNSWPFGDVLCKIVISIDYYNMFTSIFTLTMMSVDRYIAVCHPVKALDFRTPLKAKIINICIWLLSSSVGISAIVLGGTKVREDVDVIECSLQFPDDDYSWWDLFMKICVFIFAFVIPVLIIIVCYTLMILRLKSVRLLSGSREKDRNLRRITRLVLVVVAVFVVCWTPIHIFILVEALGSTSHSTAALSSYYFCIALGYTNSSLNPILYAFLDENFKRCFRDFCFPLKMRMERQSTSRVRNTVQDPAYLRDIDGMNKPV
UniProt P35372, whole entry: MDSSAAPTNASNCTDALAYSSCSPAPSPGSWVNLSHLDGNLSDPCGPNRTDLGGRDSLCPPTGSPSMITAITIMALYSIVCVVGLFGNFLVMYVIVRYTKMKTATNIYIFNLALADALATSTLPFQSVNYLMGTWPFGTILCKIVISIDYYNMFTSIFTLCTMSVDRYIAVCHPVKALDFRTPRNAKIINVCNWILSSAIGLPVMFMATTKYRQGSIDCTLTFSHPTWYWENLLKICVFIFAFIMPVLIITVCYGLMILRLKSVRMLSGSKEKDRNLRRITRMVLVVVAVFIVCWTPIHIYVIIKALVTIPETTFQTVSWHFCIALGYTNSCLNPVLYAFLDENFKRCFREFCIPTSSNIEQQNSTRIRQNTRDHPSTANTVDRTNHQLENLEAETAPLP

Assay [1] has as its target cloned human κ opioid receptor (Homo sapiens, UniProt P41145). Kind of assay: [3H]diprenorphine receptor binding, κ opioid receptor. The note with it: read-out: affinity (Ki value), kappa opioid receptor, inhibition of [3H]diprenorphine binding, tested form: dihydrochloride, 1.75 hydrate. The method, then: (§1) The potencies of the compounds listed in Table 2 were determined by testing the ability of a range of concentrations of each compound to inhibit the binding of the non-selective opioid antagonist, [^3H]diprenorphine, to the cloned human μ, κ, and δ opioid receptors, expressed in separate cell lines. IC50 values were obtained by nonlinear analysis of the data using GraphPad Prism version 3.00 for Windows (GraphPad Software, San Diego). Ki values were obtained by Cheng-Prusoff corrections of IC50 values.
(§2) The receptor binding method (DeHaven and DeHaven-Hudkins, 1998) was a modification of the method of Raynor et al. (1994). […] The filters were rinsed 4 times with 1 mL of cold 50 mM Tris HCl, pH 7.8 and radioactivity remaining on the filters determined by scintillation spectroscopy. Nonspecific binding was determined by the minimum values of the titration curves and was confirmed by separate assay wells containing 10 μM naloxone. Ki values were determined by Cheng-Prusoff corrections of IC50 values derived from nonlinear regression fits of 12 point titration curves using GraphPad Prism® version 3.00 for Windows (GraphPad Software, San Diego, Calif.).
(§3) To determine the equilibrium dissociation constant for the inhibitors (Ki), radioligand bound (cpm) in the presence of various concentrations of test compounds was measured. […]

Assay [2] addresses cloned human μ opioid receptor (Homo sapiens, UniProt P35372). Kind of assay: [3H]diprenorphine receptor binding, μ opioid receptor. Particulars: read-out: affinity (Ki value), mu opioid receptor, inhibition of [3H]diprenorphine binding, tested form: dihydrochloride, 1.75 hydrate. The protocol: as §1, §2, §3
The subject of another assay is FCA-induced hyperalgesia. Kind of assay: Freunds Complete Adjuvant (FCA)-induced hyperalgesia, paw pressure threshold. Particulars: rat, oral administration, 3 mg/kg dose, PPT assessed 60 minutes after drug treatment, 24 h after intraplantar FCA; tested form: dihydrochloride, 1.75 hydrate. The protocol: Freunds Complete Adjuvant (FCA)-Induced Hyperalgesia
Rats were injected intraplantar with FCA and 24 h later treated with tested compounds administered orally. Paw Pressure Thresholds (PPT) was assessed 60 minutes after drug treatment. In this assay, 43D produced siginificant anti-hyperalgesic activity (193±47% antihyperalgesia) after oral administration (3 mg/kg dose).

For assay [3], the target named is T1, cloned human δ opioid receptor (Homo sapiens, UniProt P41143). Kind of assay: Receptor-mediated [35S]GTPγS binding (agonist potency). Particulars: read-out: in vitro δ agonist activity (EC50); stimulation of [35S]GTPγS binding, membranes with cloned human δ opioid receptor; tested form: dihydrochloride, 1.75 hydrate. In kind it is biochemical. The protocol:
The potency and efficacy of compounds at each of the receptors are assessed by modifications of the methods of Selley et al., 1997 and Traynor and Nahorski, 1995 using receptor-mediated [^35S]GTPγS binding in the same membrane preparations used to measure receptor binding. Assays are carried out in 96-well FlashPlates® (Perkin Elmer Life Sciences, Inc, Boston, Mass.). […] After incubation at room temperature for one hour, the plates are sealed, centrifuged at 800×g in a swinging bucket rotor for 5 min and bound radioactivity determined with a TopCount microplate scintillation counter (Packard Instrument Co., Meriden, Conn.).
EC50 values for agonists are determined from nonlinear regression fits of 8- or 12-point titration curves to the 4-parameter equation for a sigmoidal dose-response with a slope factor of 1.0 using GraphPad Prism® version 3.00 for Windows (GraphPad Software, San Diego, Calif.).
The potencies of the compounds were determined by testing the ability of a range of concentrations of each compound to inhibit the binding of the non-selective opioid antagonist, [^3H]diprenorphine, to the cloned human μ, κ, and δ opioid receptors, expressed in separate cell lines. […] The potencies of the agonists were assessed by their abilities to stimulate [^35S]GTPγS binding to membranes containing the cloned human δ opioid receptors.
(GTPγS is a poorly hydrolysed GTP analogue; its binding reports G protein activation.)

Assay [4] addresses T1, cloned human δ opioid receptor. Kind of assay: [3H]diprenorphine receptor binding, δ opioid receptor. Particulars: read-out: affinity (Ki value), delta opioid receptor, inhibition of [3H]diprenorphine binding, tested form: dihydrochloride, 1.75 hydrate. The protocol:
as §1, §2, §3

pEC50, pKi: −log10 of the molar value.

For orientation: pEC50 means the negative decadic logarithm of the EC50, by convention in mol/L. In the case of `CCN(CC)C(=O)c1ccc(C2=CC3(CCCNCC3)Oc3cccc(O)c32)cn1` (centres unmarked), the figures for the pKi in assay [1], in assay [2] and in assay [4] were less than 6.00, less than 7.00 and 8.60, respectively. Further, the “% antihyperalgesia” value in the assay on FCA-induced hyperalgesia was 193±47%. Further, the pEC50 in assay [3] is 7.20.
